The source of these data is patent US8779142B2, “Azabicyclo compound and salt thereof” (Taiho Pharmaceutical Co., Ltd., priority 2009, dated 2014).

As a reminder, the pIC50 is the IC50 on a negative log10 scale, so that one unit is a factor of ten.

pIC50: −log10 of the molar value.

In this assay the target is human HSP90 alpha protein (HSP90 N-terminal protein, amino acids 2-236) (Homo sapiens (Human), UniProt P07900). The assay can be described thus: Measurement of HSP90-binding activity (AlphaScreen competitive assay, biotin-labeled geldanamycin). The settings on record: concentration inhibiting binding of biotin-labeled geldanamycin (40 nM) to purified HSP90 to 50% of control; read-out: HSP-binding activity IC50. On the technique in general: Bead proximity is the source of the signal in Alpha formats.

As to `CC(C)c1nn(-c2ccc(C(N)=O)c(N[C@H]3CC[C@H](O)CC3)c2)c2nccc(-c3cnc4ccccc4c3)c12` [Example 6, 2-(Trans-4-hydroxycyclohexylamino)-4-{3-isopropyl-4-(quinolin-3-yl)-1H-pyrazolo[3,4-b]pyridin-1-yl}benzamide], the pIC50 was 6.82. For `COc1ccc(-c2ccnc3c2c(C(C)C)nn3-c2ccc(C(N)=O)c(N[C@H]3CC[C@H](O)CC3)c2)cn1` [Example 18, 2-(Trans-4-hydroxycyclohexylamino)-4-{3-isopropyl-4-(6-methoxypyridin-3-yl)-1H-pyrazolo[3,4-b]pyridin-1-yl}benzamide] the value was 5.52.

On to `Cc1cn(-c2ccc(C(N)=O)c(N[C@H]3CC[C@H](N)CC3)c2)c2nccc(-c3cnc4ccccc4c3)c12` [Example 61, 2-(Trans-4-aminocyclohexylamino)-4-{3-methyl-4-(quinolin-3-yl)-1H-pyrrolo[2,3-b]pyridin-1-yl}benzamide], for which the pIC50 is 6.22. Then `Cc1cn(-c2ccc(C(N)=O)c(S[C@H]3CC[C@H](O)CC3)c2)c2nccc(-c3cnc4ccccc4c3)c12` [Example 67, 2-(Trans-4-hydroxycyclohexylthio)-4-{3-methyl-4-(quinolin-3-yl)-1H-pyrrolo[2,3-b]pyridin-1-yl}benzamide], with 6.44.
